Key:
[1] = target: Lys63-linked diubiquitin (enzymatically assembled), P0CG48
[2] = target: Lys29-linked diubiquitin, P0CG48
[3] = target: Lys6-linked diubiquitin, P0CG48

Amino acid sequences for entries named in this document (tags omitted).
Lys63-linked diubiquitin (enzymatically assembled), P0CG48, UniProt P0CG48, whole entry, looked up: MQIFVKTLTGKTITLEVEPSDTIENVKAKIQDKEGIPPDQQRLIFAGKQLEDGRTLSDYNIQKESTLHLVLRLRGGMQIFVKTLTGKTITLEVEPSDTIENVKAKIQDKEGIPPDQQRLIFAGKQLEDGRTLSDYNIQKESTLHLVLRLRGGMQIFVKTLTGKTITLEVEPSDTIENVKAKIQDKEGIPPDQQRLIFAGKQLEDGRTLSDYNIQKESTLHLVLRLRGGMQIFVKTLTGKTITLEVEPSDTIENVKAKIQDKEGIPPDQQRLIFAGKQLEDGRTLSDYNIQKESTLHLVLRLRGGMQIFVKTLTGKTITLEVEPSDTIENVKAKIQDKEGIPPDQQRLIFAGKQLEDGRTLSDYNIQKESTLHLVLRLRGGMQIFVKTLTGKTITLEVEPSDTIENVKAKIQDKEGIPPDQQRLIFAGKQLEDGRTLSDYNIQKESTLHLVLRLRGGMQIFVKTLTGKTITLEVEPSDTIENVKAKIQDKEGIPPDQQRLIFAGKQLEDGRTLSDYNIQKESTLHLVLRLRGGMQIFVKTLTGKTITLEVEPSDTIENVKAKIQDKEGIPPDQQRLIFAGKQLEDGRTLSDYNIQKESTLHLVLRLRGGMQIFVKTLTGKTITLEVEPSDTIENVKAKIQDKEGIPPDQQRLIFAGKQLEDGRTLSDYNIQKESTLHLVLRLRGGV

B1: USP2 (protein)
chain: NSKSAQGLAGLRNLGNTCFMNSILQCLSNTRELRDYCLQRLYMRDLHHGSNAHTALVEEFAKLIQTIWTSSPNDVVSPSEFKTQIQRYAPRFVGYNQQDAQEFLRFLLDGLHNEVNRVTLRPKSNPENLDHLPDDEKGRQMWRKYLEREDSRIGDLFVGQLKSSLTCTDCGYCSTVFDPFWDLSLPIAKRGYPEVTLMDCMRLFTKEDVLDGDEKPTCCRCRGRKRCIKKFSIQRFPKILVLHLKRFSESRIRTSKLTTFVNFPLRDLDLREFASENTNHAVYNLYAVSNHSGTTMGGHYTAYCRSPGTGEWHTFNDSSVTPMSSSQVRTSDAYLLFYELASPPSRM
cleavage in in vitro deubiquitinase assay (SDS-PAGE, silver stain) [1]: cleaved Lys6- and Lys63-linked diubiquitin more rapidly than Lys29-linked diubiquitin | cleavage in in vitro deubiquitinase assay (SDS-PAGE, silver stain) [2]: cleaved Lys6- and Lys63-linked diubiquitin more rapidly than Lys29-linked diubiquitin | cleavage in in vitro deubiquitinase assay (SDS-PAGE, silver stain) [3]: cleaved Lys6- and Lys63-linked diubiquitin more rapidly than Lys29-linked diubiquitin
